Reference: publication PMC3863386 (Journal of the American Chemical Society, 2013)

Amino acid sequences for entries named in this document (tags omitted). A change or cut given only in a name is not applied to a line headed by its entry.
UniProt P76141: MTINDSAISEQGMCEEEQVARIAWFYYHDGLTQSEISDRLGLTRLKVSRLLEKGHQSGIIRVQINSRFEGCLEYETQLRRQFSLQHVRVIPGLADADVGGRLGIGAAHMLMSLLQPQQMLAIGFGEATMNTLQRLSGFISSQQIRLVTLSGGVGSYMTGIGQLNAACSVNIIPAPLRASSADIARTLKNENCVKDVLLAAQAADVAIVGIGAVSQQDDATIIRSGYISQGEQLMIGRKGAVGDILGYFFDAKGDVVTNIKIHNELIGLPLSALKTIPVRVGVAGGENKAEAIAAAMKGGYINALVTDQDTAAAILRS

Biological target: LsrR (Escherichia coli, UniProt P76141)

For phospho-isobutyl DPD [D8P], the Kd (read-out: Kd of LsrR (ITC), ITC, 20°C, one-site binding model) was 430 ± 150 nM and the Kd (read-out: LsrR-binding affinity (Kd), approximate, rounded summary value) was about 500 nM.

Read-outs that look alike come from different tables or passages of the source.
